This is an account of results in patent US8193239B2, “Substituted 1-cyanoethylheterocyclylcarboxamide compounds” (AstraZeneca AB, priority 2009, dated 2012).

Amino acid sequences for entries named in this document (tags omitted). Residues count along the entry.
UniProt P53634, 395-463 limits assumed: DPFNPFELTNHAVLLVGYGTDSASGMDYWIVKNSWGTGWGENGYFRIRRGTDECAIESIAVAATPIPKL
UniProt P53634, 25-134 limits assumed: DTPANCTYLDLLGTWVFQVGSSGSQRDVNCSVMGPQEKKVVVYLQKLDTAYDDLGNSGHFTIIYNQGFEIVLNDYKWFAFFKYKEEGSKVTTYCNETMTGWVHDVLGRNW
UniProt P53634, 231-394 limits assumed: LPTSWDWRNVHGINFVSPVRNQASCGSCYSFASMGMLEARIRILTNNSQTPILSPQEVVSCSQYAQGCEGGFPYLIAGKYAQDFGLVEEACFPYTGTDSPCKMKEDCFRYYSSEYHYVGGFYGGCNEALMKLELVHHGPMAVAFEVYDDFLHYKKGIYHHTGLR

This test has as its target Recombinant Human (rh) DPP1 (Homo sapiens, UniProt P53634). The experiment in a line: Fluorescence Assay for Recombinant Human (rh) DPP1. It counts as biochemical. Particulars: rhDPP1, substrate H-Gly-Arg-AMC, pH5.0, 22° C., pre-incubated 30-60 min; read-out: DPP1 activity, pIC50 (converted). As to the method:
Fluorescence Assay for Recombinant Human (rh) DPP1
The activity of DPP1 was determined by measuring the enzymatic release of aminomethyl coumarin (AMC) from the peptide substrate (H-Gly-Arg-AMC), which leads to an increase in fluorescence intensity at λex=350 nm and λem=450 nm. The assay was carried out in black 384 well plates in a final volume of 50 μl at 22° C. The assay conditions contained the following: 25 mM piperazine buffer pH5.0; 50 mM NaCl, 5 mM DTT; 0.01% (v/v) Triton X-100; 100 μM H-Gly-Arg-AMC and rhDPP1 (˜50 μM). Potential inhibitors were made up in DMSO and then diluted in the assay to give a final concentration of not exceeding 1% (v/v) DMSO. A 10-point half-log dilution series of the inhibitors (highest concentration typically 10 μM) was tested and the pIC50 determined using a 4-paramater logistic equation in a non-linear curve fitting routine. A standard DPP1 inhibitor (vinyl sulfone, see below, or Example 24 from WO2009/074829) was used as a positive control in the assay. Routinely, inhibitors were pre-incubated with rhDPP1 for 30-60 min prior to the addition of the peptide substrate to start the reaction for a further 60 min at 22° C. After that the plates were immediately read in a fluorescence plate reader using the above emission and excitation wavelengths [modified from Kam, C M, Gotz, M G, Koot, G, McGuire, M J, Thiele, D L, Hudig, D & Powers, J C (2004). […]

For the compound `N#Cc1ccc(-c2ccc(C[C@@H](C#N)NC(=O)C3(N)CCOCC3)cc2)cc1` [Example 3, (S)-4-Amino-N-(1-cyano-2-(4′-cyanobiphenyl-4-yl)ethyl)tetrahydro-2H-pyran-4-carboxamide], the IC50 is 0.794 nM.
